Laboratory results as given in patent US20240424071A1, “NOVEL MUTANT OF RECOMBINANT GANODERMA LUCIDUM IMMUNOMODULATORY PROTEIN AND USE THEREOF” (CHANGCHUN INTELLICROWN PHARMACEUTICAL CO., LTD., priority 2021, published 2024).

How the values were obtained:
CR5043B organoid = assay: PDXO organoid growth inhibition (CTG 3D), colorectal cancer CR5043B; assay type: cell-based; settings: KRAS G13D, read Day 5
Description: (§1) • a) 20 μl of 100× Dispase solution was added in to a 6-well plate (containing 2 mL of organism culture medium), and organoid was collected from each well. b) The 6-well plate was returned into the incubator and cultured at 37° C. for 30 min. c) The organoid was collected from the 6-well plate, and transferred by a pre-wetted 100 μm filter into a 50 mL plastic tube. d) Once all the wells were filtered by 100 μm filter, the flow was filtered by a pre-wetting 20 μm filter. e) The 20 μm filter was inverted, and the organoid was collected in a new 50 mL tube. f) The organoid was collected and re-suspended in the corresponding culture medium. The organoid was calculated for their concentrations. g) The cell concentration was adjusted with the medium to an appropriate concentration. h) Matrigel was added to a final concentration of 5% v/v, and the organoid was suspended on ice. i) 40 μL of cell suspension was added with a Multidrop dispenser into a 384-well plate. […]
(§2) 40 μL of CTG 3D was added into each well by a Multidrop dispenser; the content was mixed on a plate oscillator for 5 min; and then the place was incubated at room temperature in dark for 30 min. The luminous signal was read on an Envision plate reader. […]

CR5082B organoid = assay: PDXO organoid growth inhibition (CTG 3D), colorectal cancer CR5082B; assay type: cell-based; settings: BRAF V600E, read Day 5
Description: as §1, §2

CR3099B organoid = assay: PDXO organoid growth inhibition (CTG 3D), colorectal cancer CR3099B; assay type: cell-based; settings: EGFR (p.R521K)/KRAS (p.G12D), read Day 5
Description: as §1, §2

[1] = tested on: LI6669 human liver cancer orthotopic transplantation tumor; assay: LI6669 human liver cancer orthotopic transplantation tumor model (PDX), survival; assay type: in vivo, BALB/c nude mouse; settings: Group 7, 50 mg/kg Q4D i.p. for 28 days; solvent control 17 days
Description: This example performs a pharmacodynamic evaluation of the test product, the recombination protein as shown in SEQ ID NO: 14, in a BALB/c male nude mouse model of orthotopic transplantation of liver cancer LI6669.
LI6669 is a HuPrime® orthotopic transplantation model originated from a patient's liver cancer. This model has a certain tendency of tumor collapse.
Tumor tissue was collected from a LI6669 tumor-bearing mouse, a HuPrime® orthotopic transplantation model of liver, and cut to tumor pieces with a diameter of 2-3 mm, which were inoculated into the upper left lobe of liver of a Balb/c nude mouse.
When the average tumor volume of the tumor-bearing mice reached about 50-150 mm^3, the mice were randomly grouped by weight according to Table 3 of “3. Design of Experiment”. The grouping day was set as Day 0, and the administration began on Day 1. […].
After tumor cell inoculation, route monitoring comprises the tumor growth and the effect of treatment on normal behaviors of animals, specially including the activity, food intake and water consumption, weight gain or loss, eyes, fur of experimental animals, and other abnormal conditions. The clinical symptoms observed during the experiments were all recorded in the original data. After drug administration, the mice were measured twice a week for their weights. […]

Substance: Cetuximab
- IC50 (CR5043B organoid): 277.853 µg/mL
- Maximum Inhibition Rate (%) (CR5043B organoid): 93.67%
- IC50 (CR5082B organoid): 459.8 µg/mL
- Maximum Inhibition Rate (%) (CR5082B organoid): 90.92%
- IC50 (CR3099B organoid): >500 µg/mL
- Maximum Inhibition Rate (%) (CR3099B organoid): 47.57%
- Median Survival [1]: 17 days
